# Membrane permeability of cyclic peptides

Source: CycPeptMPDB (Li et al. 2023), which took these values from Furukawa et al. 2016, doi:10.1021/acs.jmedchem.6b01246.

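Conditions beyond the assay type are not listed; see the original paper. The list need not hold all peptides of the study. Entries at the database's floor value (log10 P of -10) are not listed.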

PAMPA measures passive passage through an artificial lipid membrane.
Values are log10 P with P in cm/s, so -5 is more permeable than -7.
A structure that stands twice has two entries in the source.

compound | PAMPA (log10 cm/s)
CCCC[C@@H]1NC(=O)[C@@H](CC(C)C)N(C)C(=O)CN(CC2CCCCC2)C(=O)[C@@H](Cc2ccccc2)NC(=O)CN(CC)C(=O)[C@H]2CCCN2C1=O | -5.08
CCCC[C@@H]1NC(=O)[C@H](CC(C)C)N(C)C(=O)CN(CC2CCOCC2)C(=O)[C@H](C)NC(=O)CN(Cc2ccc3c(c2)OCO3)C(=O)[C@H]2CCCN2C1=O | -6.10
CCCC[C@@H]1NC(=O)[C@H](CC(C)C)N(C)C(=O)CN(CC2CCCCC2)C(=O)[C@@H](C)NC(=O)CN(CCCOC(C)C)C(=O)[C@H]2CCCN2C1=O | -5.47
CCCC[C@@H]1NC(=O)[C@H](CC(C)C)N(C)C(=O)CN(CC2CCOCC2)C(=O)[C@@H](Cc2ccccc2)NC(=O)CN(CCCOC(C)C)C(=O)[C@H]2CCCN2C1=O | -6.52
CCCC[C@@H]1NC(=O)[C@@H](CC(C)C)N(C)C(=O)CN(CC2CCCCC2)C(=O)[C@@H](C)NC(=O)CN(CC)C(=O)[C@@H]2CCCN2C1=O | -5.75
CCCCCN1CC(=O)N(C)[C@H](CC(C)C)C(=O)N[C@@H](CCCC)C(=O)N2CCC[C@@H]2C(=O)N(Cc2ccc3c(c2)OCO3)CC(=O)N[C@@H](Cc2ccccc2)C1=O | -8.26
CCCC[C@@H]1NC(=O)[C@@H](CC(C)C)N(C)C(=O)CN(CC2CCOCC2)C(=O)[C@H](Cc2ccccc2)NC(=O)CN(Cc2ccc3c(c2)OCO3)C(=O)[C@H]2CCCN2C1=O | -5.48
CCCC[C@@H]1NC(=O)[C@@H](CC(C)C)NC(=O)CN(CC2CCOCC2)C(=O)[C@H](C)NC(=O)CN(Cc2ccc3c(c2)OCO3)C(=O)[C@@H]2CCCN2C1=O | -5.89
CCCC[C@@H]1NC(=O)[C@H](CC(C)C)N(C)C(=O)CN(CC2CCOCC2)C(=O)[C@H](C)NC(=O)CN(Cc2ccc3c(c2)OCO3)C(=O)[C@H]2CCCN2C1=O | -5.54
CCCC[C@@H]1NC(=O)[C@@H](CC(C)C)N(C)C(=O)CN(CC2CCCCC2)C(=O)[C@@H](C)NC(=O)CN(CCCOC(C)C)C(=O)[C@@H]2CCCN2C1=O | -5.30
CCCCCN1CC(=O)N[C@@H](CC(C)C)C(=O)N[C@@H](CCCC)C(=O)N2CCC[C@@H]2C(=O)N(Cc2ccc3c(c2)OCO3)CC(=O)N[C@H](Cc2ccccc2)C1=O | -5.43
CCCCCN1CC(=O)N(C)[C@H](CC(C)C)C(=O)N[C@@H](CCCC)C(=O)N2CCC[C@H]2C(=O)N(CCCOC(C)C)CC(=O)N[C@@H](C)C1=O | -4.91
CCCC[C@@H]1NC(=O)[C@@H](CC(C)C)N(C)C(=O)CN(CC2CCCCC2)C(=O)[C@H](Cc2ccccc2)NC(=O)CN(CCCOC(C)C)C(=O)[C@H]2CCCN2C1=O | -5.77

Again, the 2 entries with the lowest PAMPA:

| compound | PAMPA (log10 cm/s) |
|---|---|
| CCCCCN1CC(=O)N(C)[C@H](CC(C)C)C(=O)N[C@@H](CCCC)C(=O)N2CCC[C@@H]2C(=O)N(Cc2ccc3c(c2)OCO3)CC(=O)N[C@@H](Cc2ccccc2)C1=O | -8.26 |
| CCCC[C@@H]1NC(=O)[C@H](CC(C)C)N(C)C(=O)CN(CC2CCOCC2)C(=O)[C@@H](Cc2ccccc2)NC(=O)CN(CCCOC(C)C)C(=O)[C@H]2CCCN2C1=O | -6.52 |